Measured values as given in patent publication US10053485B2, “Cytotoxic agents that preferentially target leukemia inhibitory factor (LIF) for the treatment of malignancies and as new contraceptive agents” (Evestra, Inc., priority 2015, dated 2018).

System: LIF-overexpressing MCF-7 (MCF-7 LIF) human breast cancer cells
Test: LIF specificity assay, LIF-overexpressing cells
Format: cell-based
Conditions: MCF-7 vs. MCF-7 LIF cytotoxicity (specificity towards LIF)

Q: `C#CC(F)(F)[C@]1(O)CCC2C3CCC4=CC(=O)CCC4=C3C(c3ccc(C4CC4)cc3)C[C@@]21C` (stereo partly drawn) [EC330, 17α-(1,1-difluoro-2-propyn-1-yl)-17β-hydroxy-11β-[4-p-(cyclopropyl)phenyl]estra-4,9-dien-3-one] was tested. Which “Fold Change” value did it give?
A: The value was 3.
